Assay: Fibril formation of PAP(248-286) solutions (turbidity, electron microscopy)
Assay type: physicochemical
Conditions: 5 mg/ml in phosphate buffered saline, shaking 1000 rpm, overnight 37 degrees Celsius

Sequence: GIHKQKEKSRLQGGVLVNEILNHMKRATQIPSYKKLIMY (Synthetic fragment of the PAP protein) [PAP(248-286)]
- appearance of peptide solution after agitation: became turbid and fibril-like structures were visible

From patent US8299031B2, “Human semen enhancer of viral infection peptides (SEVI) and their use” (Viro Pharmaceuticals GmbH & Co. KG, priority 2006, dated 2012)
